Patent EP4544907B1, “CLEANING WET WIPE” (dated 2026)

Experiment: dissolution of xanthoxylin during chemical solution adjustment
Method: Note that the present inventors confirmed during an experiment of chemical solution adjustment that xanthoxylin was dissolved in a cleaning chemical solution for wiping off sebum and oil contaminations although xanthoxylin was also hardly soluble in water.
Also, the present inventors discovered that it was possible to dissolve xanthoxylin in a water-based chemical solution by using ethanol and a surfactant together since xanthoxylin had compatibility with ethanol and a surfactant contained in the cleaning chemical solution and achieved the present invention.

## COc1cc(O)c(C(C)=O)c(OC)c1
Cleaning chemical solution for wiping off sebum and oil contaminations, containing ethanol and a surfactant
  dissolution in cleaning chemical solution: dissolved
water
  solubility in water: hardly soluble in water
